Results: PubChem BioAssay AID1259313 (Sanford-Burnham Center for Chemical Genomics, 2017)
The entries are a selection whose mix differs from that of the whole data set. Some results for these compounds are left out of this collection, so the calls shown say nothing about other tests. Active and inactive are the calls of the source.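 The calls were made as follows: active = melting temperature shift of at least 10% of the positive control shift, at one fixed dose; inactive = the rest.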

Each molecule was assayed on Glutamate receptor ionotropic, NMDA 3A (GRIN3A) ligand-binding domain (assay: NR3A LBD thermal stabilization by compounds – biophysical, differential scanning fluorimetry, uHTS, primary screen (AID 1259313)). Details: at 25 µM, hits give high values, 0% = protein alone, 100% = glycine-bound protein.
With `Cc1ccccc1C(=O)NCC1(N2CCCCC2)CCCCC1` the Tm shift relative to glycine control was inactive: -0.93%.
`CN(C)c1ccc(C(=O)NCC2(N(C)C)CCCCC2)cc1` was tested, and the Tm shift relative to glycine control was inactive: -2.23%.
In the case of `CN(C)C1CCCC1OC(=O)C(O)(c1ccccc1)c1ccccc1` (stereo not given), the Tm shift relative to glycine control is reported as inactive: 0.38%.
With `CCN1CCCC(OC(=O)C2(O)c3ccccc3C=Cc3ccccc32)C1` (stereo not given) the Tm shift relative to glycine control was inactive: -0.67%.
`Cc1cc(C(=O)NCC2(N3CCCCC3)CCCCC2)ccc1[N+](=O)[O-]` was tested, and the Tm shift relative to glycine control was inactive: 0.97%.
For `O=C(NCC1(N2CCCCC2)CCCCC1)c1cccc(Br)c1`, the Tm shift relative to glycine control was inactive: -1.01%.
With `COc1ccc(C(=O)NCC2(N(C)C)CCCCC2)cc1` the Tm shift relative to glycine control was inactive: 0.86%.
`C=CCN1CCN(CCOC(=O)C(O)(c2ccccc2)c2ccccc2)CC1` was tested, and the Tm shift relative to glycine control was inactive: -2.3%.
For `O=C(NCC1(N2CCCCC2)CCCCC1)c1cc(F)c(F)cc1Cl`, the Tm shift relative to glycine control was inactive: -1.48%.
With `CN1[C@@H]2CC[C@H]1CC(OC(=O)C(O)(c1ccccc1)c1ccccc1)C2` (stereo not given in full) the Tm shift relative to glycine control was inactive: -0.52%.
In the case of `O=C(NCC1(N2CCCCC2)CCCCC1)c1cc([N+](=O)[O-])ccc1Cl`, the Tm shift relative to glycine control is reported as inactive: -1.67%.
In the case of `Cc1ccc(C(=O)NCC2(N3CCCCC3)CCCCC2)cc1`, the Tm shift relative to glycine control is reported as inactive: -0.8%.
`CC(C)N1C(=O)CC2(CCN(CCOC(=O)C(O)(c3ccccc3)c3ccccc3)CC2)C1=O` was tested, and the Tm shift relative to glycine control was inactive: 1.16%.
In the case of `CCN(CC)CC(C)C(C)OC(=O)C(O)(c1ccccc1)c1ccccc1` (stereo not given), the Tm shift relative to glycine control is reported as inactive: -1.68%.
In the case of `COc1cc(SC)ccc1C(=O)NCC1(N(C)C)CCCCC1`, the Tm shift relative to glycine control is reported as inactive: -0.29%.
In the case of `O=C(OC1CN2CCC1CC2)C(CO)(c1ccccc1)c1ccccc1` (stereo not given), the Tm shift relative to glycine control is reported as inactive: 0.05%.
In the case of `CN(C)c1cccc(C(=O)NCC2(N(C)C)CCCCC2)c1`, the Tm shift relative to glycine control is reported as inactive: -0.24%.
In the case of `CC(C)Oc1ccc(C(=O)NCC2(N(C)C)CCCCC2)cc1`, the Tm shift relative to glycine control is reported as inactive: -2.23%.
For `O=C(OCCN1CCCC1)C(O)(c1ccccc1)c1ccccc1`, the Tm shift relative to glycine control was inactive: 0.42%.
In the case of `COc1ccc(Br)c(C(=O)NCC2(N3CCCCC3)CCCCC2)c1`, the Tm shift relative to glycine control is reported as inactive: -0.69%.
In the case of `COc1cc(C(=O)NCC2(N(C)C)CCCCC2)c([N+](=O)[O-])cc1OC`, the Tm shift relative to glycine control is reported as inactive: 0.18%.
In the case of `CN(C)C1(CNC(=O)c2ccc(Br)cc2)CCCCC1`, the Tm shift relative to glycine control is reported as inactive: -0.4%.
For `O=C(NCC1(N2CCCCC2)CCCCC1)c1cccc(Cl)c1`, the Tm shift relative to glycine control was inactive: 0.95%.
In the case of `COc1cccc(C(=O)NCC2(N3CCCCC3)CCCCC2)c1`, the Tm shift relative to glycine control is reported as inactive: 2.38%.
For `COc1ccc(Cl)cc1C(=O)NCC1(N(C)C)CCCCC1`, the Tm shift relative to glycine control was inactive: -0.74%.
